Antibody variant affinities, Ab-91 heavy chain, assay 2

Target peptide (SARS-CoV-2 spike, HR2 region): PDVDLGDISGINAS

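The starting antibody came from a phage panning campaign against this peptide. In library AAYL51, one, two or three CDR residues were substituted; doubles and triples were drawn at random. The scFvs were displayed on barcoded MATa yeast, the peptide on MATalpha yeast. After mating in shaken culture at 30 °C for 16 h, diploids were selected and their barcode pairs sequenced. The ratio of observed to expected reads was calibrated, replicate by replicate, on BCL2-family standards whose Kd was known from biolayer interferometry. The assay was run in three technical replicates.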

Parent scFv Ab-91: VL joined to VH by a 15-residue (Gly4Ser)3 linker. Changes lie in the heavy chain CDRs alone.
VL: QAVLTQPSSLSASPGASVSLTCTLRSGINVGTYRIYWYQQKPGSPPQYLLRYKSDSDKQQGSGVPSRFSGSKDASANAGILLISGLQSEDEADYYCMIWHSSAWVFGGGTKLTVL
VH: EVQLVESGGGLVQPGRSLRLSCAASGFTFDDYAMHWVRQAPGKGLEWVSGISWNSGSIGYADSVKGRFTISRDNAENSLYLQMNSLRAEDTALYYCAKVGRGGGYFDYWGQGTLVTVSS

Variants are written as CDR1, CDR2 and CDR3 of the heavy chain (limits as in the source). Parent: GFTFDDYAMH, GISWNSGSIGYADSVK, VGRGGGYFDY. All variants listed here change G103 of the VH, counted from its first residue. Values are apparent Kd, the geometric mean of the replicates that gave a signal; lower means stronger binding. "no signal" means that the variant was in the library but no mating with the target was seen in any replicate; the authors take this as a sign of poor binding, and no number exists. Background: pairings of library AAYL51 with three empty control strains gave a value in 21% of cases (median 34 µM, 5th percentile 1.8 µM). Values in that range, when seen in few replicates, are hard to tell from nonspecific mating. Also given: how often the same scFv was detected with the empty control strains.

With GVTFDDYAMH | GISWNSGSIGYADSVK | VGRGFGYFSY the result was no signal (0 of 3 replicates; controls 0 of 9). Variant GFTFDDYAMH | GISWNSGSIGYADSVK | VGRGWGYDKY gave no signal (0 of 3 replicates; controls 0 of 9). Variant GFTFDDYAMH | GISWNSGEIGYADSVH | VGRGAGYFDY gave 320 µM (1 of 3 replicates; controls 1 of 9). With GFTFDDYAMH | GISWNSGSIGYADSVK | VGRGWGYCDD the result was no signal (0 of 3 replicates; controls 1 of 9). With PFTFDDYAMH | GISWNSGSIGYADSVK | VGRGVGYFDY the result was no signal (0 of 3 replicates; controls 1 of 9). For GFTFDDYAMH | GISWNSGSIGYADSVK | VGIKHGYFDY, the assay gave no signal (0 of 3 replicates; controls 0 of 9). Variant GFTFDDYAMH | MISWNSGYIGYADSVK | VGRGCGYFDY gave no signal (0 of 3 replicates; controls 1 of 9). Variant GFTFDDYAMH | GISWNSGPIGYADSVK | VKRGDGYFDY gave no signal (0 of 3 replicates; controls 3 of 9). Variant GFTFDDYAMH | GISWNSGSIGYWDSVK | VPRGYGYFDY showed no signal (0 of 3 replicates; controls 0 of 9).

Variant GFTFDDYAMH | GISWNSGSIGKADSVK | VGQGWGYFDY gave no signal (0 of 3 replicates; controls 0 of 9). Variant GFTFDDYAMH | GISWNSGSIGYEDSVK | VGRGPGYFYY gave no signal (0 of 3 replicates; controls 4 of 9). Variant GFTFDDYAMH | GISWNSGSIGYAWSVK | VTRGQGYFDY gave 530 nM (3 of 3 replicates; controls 1 of 9). For GFTFDDYAMH | GISINSGSIGDADSVK | VGRGKGYFDY, the assay gave no signal (0 of 3 replicates; controls 0 of 9). With GFTFDDYAMH | GISWKIGSIGYADSVK | VGRGSGYFDY the result was no signal (0 of 3 replicates; controls 1 of 9). Variant GFTFDDYAMH | GISWNSGWIGYAVSVK | VGRGFGYFDY gave no signal (0 of 3 replicates; controls 0 of 9). With GFTFDDYAMH | GISWCSGSIGYADSVK | VGRGAMYFDY the result was no signal (0 of 3 replicates; controls 0 of 9). Variant GFTFDDYAMH | GISWNSGGIGYADSVK | VSRGDGYFDY gave 170 µM (1 of 3 replicates; controls 4 of 9). With GFTFDDYAMH | GISWQSGSIGYADSAK | VGRGTGYFDY the result was 88 µM (2 of 3 replicates; controls 3 of 9).

Variant GFTFDDGAMH | GISWNSGSIGYADSVK | VGRPKGYFDY gave no signal (0 of 3 replicates; controls 0 of 9). With GFTFDDYAMH | GISWNSGSIGYALSVK | VGWGNGYFDY the result was 37 µM (3 of 3 replicates; controls 1 of 9). Variant HFTFDDQAMH | GISWNSGSIGYADSVK | VGRGSGYFDY gave no signal (0 of 3 replicates; controls 2 of 9). With GFTFDDYAMH | GISWNSGSIGQADSVK | VGRGPGYFCY the result was 3.7 µM (2 of 3 replicates; controls 4 of 9). Variant GFTFDDYAMH | GISWESGSIGYADSVK | DGRGTGYFDY showed no signal (0 of 3 replicates; controls 1 of 9). For GFTFDDYAMH | GISWNSGSIGYADSVK | HGVGHGYFDY, the assay gave 95 µM (3 of 3 replicates; controls 6 of 9). For GFTFDDYAMH | GISWNSGGIGYADSVK | VGRGQGYLDY, the assay gave 170 nM (3 of 3 replicates; controls 0 of 9). With GFTFDDYAMH | GISWNSGSIGYADSVK | VGRKSGYFDC the result was no signal (0 of 3 replicates; controls 3 of 9). Variant GFTFADYAMH | GISWNSGSIGYADSVK | VGRGTGYFFY gave 74 µM (1 of 3 replicates; controls 1 of 9).

Variant GFTFDDYAMH | CISWNSGSIGYADSVK | KGRGMGYFDY showed no signal (0 of 3 replicates; controls 0 of 9). Variant GFTFDDSAMH | GISWNSGSIGYADSVK | VGRGIGYFDY showed no signal (0 of 3 replicates; controls 1 of 9). With GFTFCDYAMH | GISWNSGSIGYADHVK | VGRGYGYFDY the result was 160 µM (3 of 3 replicates; controls 4 of 9). Variant GFTFYDYAMH | GISWNSGSIGYADSPK | VGRGTGYFDY gave no signal (0 of 3 replicates; controls 1 of 9). Variant GQTFDDYAMH | GISWNSGSVGYADSVK | VGRGKGYFDY showed no signal (0 of 3 replicates; controls 0 of 9). For GFTFDDYAYH | GISWKSGSIGYADSVK | VGRGAGYFDY, the assay gave 61 µM (1 of 3 replicates; controls 5 of 9). Variant QFTFDDYAMH | GISWNSVSIGYADSVK | VGRGAGYFDY showed no signal (0 of 3 replicates; controls 0 of 9). Variant GFTFDDYAMH | GISWNSGSIGYADSVK | VGRGSGYFDY showed 26 µM (2 of 3 replicates; controls 1 of 9). For GFTFDDYAMH | AISWNSGSIGYADSVK | VGRGCGYFDY, the assay gave 18 µM (1 of 3 replicates; controls 0 of 9).

With GFTFDDYHMH | GISWNSGSIGYADSVK | VGRGVGYFDY the result was no signal (0 of 3 replicates; controls 1 of 9). For GFTFDDYAMH | GISWNSGSIGYADSVK | VGRGKGWFDY, the assay gave 330 µM (2 of 3 replicates; controls 3 of 9). With GFTFDDYAMH | GISWNSGSIGYADSVK | VGCGWGYFDY the result was 640 nM (3 of 3 replicates; controls 2 of 9). For GFTFDDYATH | GTSWNSGSIGYADSVK | VGRGFGYFDY, the assay gave no signal (0 of 3 replicates; controls 0 of 9). Variant GFTFDDYAMH | GISWNSGSIGQADFVK | VGRGWGYFDY showed 12 µM (1 of 3 replicates; controls 4 of 9).

Parent in this assay: reference entry 72 nM, copy in this library 7.5 nM.

From the AlphaSeq antibody data of Engelhart et al. 2022 (doi:10.1038/s41597-022-01779-4), copy in the FLAb collection.